According to patent US20100240883A1, “Lipid-drug conjugates for drug delivery” (priority 2009, published 2010):

Key:
[1] = 37° C., estimated half-life; for t1/2 human plasma α: α position ester; for t1/2 human plasma β: β position ester
[2] = β position ester; 10 mM KH2PO4 buffered saline pH 7.4, 37° C., 100 to 200 μM prodrug; estimated half-life, pseudo-first-order

t1/2 human plasma α [1]	t1/2 human plasma β [1]	t1/2 buffered saline (pH 7.4) β [2]	Substance
12.0 ± 1.1 min	5.4 ± 0.7 min		L-N-oleoyl-alanyl-lamivudine
	8.0 ± 0.1 min	467.0 ± 7.2 min	L-N-oleoyl-lysyl-lamivudine
22.3 ± 2.8 min	7.9 ± 1.6 min	452.0 ± 9.1 min	D-N-oleoyl-lysyl-lamivudine
